Each structure is given as a SMILES string. This is a selection; strong and weak results do not stand in their true shares. The source made the active and inactive calls. The call rests on the fitted dose curve; in most records, active means well fitted activation curve with a large enough effect; inconclusive means small, poorly fitted or top-dose-only effect; inactive means no such curve, though single readings can be large or run the other way.

A short description of the experiment: qHTS Multiplex Assay to Identify Dual Action Probes in a Cell Model of Huntington: Cytoprotection (ATP).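 Further: toxic huntingtin expression switched on by the ecdysone agonist tebufenozide; % of control where 0% means no effect; nearly all actives have a fitted effect of over 45% in size.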 To be noted: PC12 HTT-Q103 induced, ATP luminescence, 40 h; at 56.4 µM (top of the series) unless noted. The text has this: NIH Chemical Genomics Center [NCGC]
NIH Molecular Libraries Probe Production centers Network [MLPCN]
Assay Submitter (PI): Wei Zheng
Huntington's disease is a neurodegenerative disorder caused by a trinucleotide repeat expansion in Exon 1 of the Huntingtin gene. The CAG trinucleotide encodes glutamine and polyglutamine expansions cause cell death in selective areas of the brain. Huntington polyglutamine repeats have the tendency to form aggregates which are observable in later stages of the disease. The exact nature of the aggregates, whether toxic, protective, or insignificant, is unclear.
A stable PC12 cell line containing a gene fusion of Exon 1 of the Huntingtin gene linked to GFP under the control of the inducible ecdysone promoter were used as the cell-based model of Huntington Disease for high throughput screening. Exon 1 of the Huntingtin gene contained an expansion of 103 polyglutamines (Q103) which, when expressed, caused cell death and distinct, bright GFP aggregates. The amount of cell death and the size and intensity of GFP aggregates increased over time and induction level. The cell death were quantified with a measurement of ATP content in the cells. A maximal 40-50% of cell death was observed when the Huntington gene was induced in this cell line.
We optimized this assay in a homogeneous 1536 well format. A quantitative high throughput screen (qHTS) was conducted on the PC12 cells which were induced to express the toxic fusion construct. Small molecules which prevented cell death were identified by using a luminescent ATP quantification method (Perkin Elmer's ATPlite).
PC12 cells stably containing a construct with an ecdysone inducible promoter expressing GFP fused to the exon 1 of HTTQ103 (Huntington protein which containing a 103 ployglutamine expansion) were used.
NCGC Assay Protocol Summary:
Sequence, Parameter, Description
1, Reagent, 5 uL 1500 cells/well 1536 TC treated White clear bottom plate
2, Compound, 23 nL Tebufenozide inducer (100 nM final) to all columns
3, Compound, 23 nL 40 uM to 0.5 nM Libraries
5, Reagent, 5 ul ATPLite cell death assay reagent
6, Detector, 4 sec integration with a Viewlux Luminescent
Media consisted of phenol red free DMEM + 5% equine serum (Hyclone # SH30072.03 ), 5% supplemented Bovine Calf Serum (Hyclone # SH30074.03 ), 1x pen/strep, no G418
Control columns: 1 = DMSO, 2= 2 uM teb dilns (1:1), 4 = 100 nM Teb inducer. Sample columns received 100 nM Teb.
(In general: qHTS replaces the single test concentration by a dilution series.)
For `CP(=O)(Nc1ccccc1F)Oc1ccccc1` (centres undefined), the cytoprotection (ATP increase) was inactive: -11.7%.
For the compound `CC(C)c1ccc(OP(C)(=O)Nc2ccc(SC(F)(F)F)cc2)cc1` (centres undefined), the cytoprotection (ATP increase) is inactive: 1.05% [at 10 µM].
As for `O=C(OCCN1CCN(CCOCc2ccccc2)CC1)C(O)(c1ccccc1)c1ccccc1`, the cytoprotection (ATP increase) is inactive: 13.3% [at 10 µM].
The figure for `Cc1cccc([N+](=O)[O-])c1[N+](=O)[O-]` is inactive: 0.228%.
In the case of `CCC(C)(OO)OOC(C)(CC)OO` (centres undefined), the cytoprotection (ATP increase) was inactive: -5.5%.
Next, `COc1ccc(OP(C)(=O)Nc2ccc(SC(F)(F)F)cc2)cc1` (centres undefined): inactive: -40%; `CCN(CC)CCCOC(=O)C(O)(c1ccccc1)C1CCCCC1` (centres undefined): inactive: 3.16% [at 1.9 µM].
Next, `CP(=O)(Nc1ccccc1)Oc1ccc(F)cc1` (centres undefined): inactive: 14.1%; `CCCCCOc1ccc(NP(C)(=O)Oc2ccc(Cl)cc2Cl)cc1` (centres undefined): inactive: 16.6% [at 10 µM]; `COc1ccc(OP(C)(=O)Nc2cccc(Br)c2)cc1` (centres undefined): inactive: 16.8%.
The figure for `CN(C)CCOC(=O)C(O)(c1ccccc1)C1CCCCC1` (centres undefined) is inactive: 11.9% [at 10 µM].
Take `COc1ccc(NP(C)(=O)Oc2ccccc2OC)cc1` (centres undefined): the cytoprotection (ATP increase) is inactive: -26.5%.
The figure for `O=[N+]([O-])c1ccc(OP2(=O)COCCO2)cc1` (centres undefined) is inactive: 12.8% [at 10 µM]; for `Cc1cc(-c2cccc3ccccc23)c(C)cn1.O=[N+]([O-])c1cc([N+](=O)[O-])c(O)c([N+](=O)[O-])c1` it is inactive: 26.9% [at 10 µM]; for `Cc1ccc([N+](=O)[O-])c([N+](=O)[O-])c1` it is inactive: -15%.
In the case of `Cc1c([N+](=O)[O-])cccc1[N+](=O)[O-]`, the cytoprotection (ATP increase) is inactive: 0.6%.
In the case of `CP(=O)(Nc1ccc(SC(F)(F)F)cc1)Oc1ccc(F)cc1` (centres undefined), the cytoprotection (ATP increase) was inactive: 0.574% [at 10 µM].
In the case of `CCOP(C)(=S)SCC(=O)NC(C)(CC)C(=O)O` (centres undefined), the cytoprotection (ATP increase) is inactive: -29.5% [at 0.074 µM].
`CCOP(=O)(CC)OCC`: the cytoprotection (ATP increase) is inactive: -31.7%.
Next, `CP(=O)(Nc1ccc2c(c1)OCCO2)Oc1ccccc1` (centres undefined): inactive: -2.29%; `[NH4+].[O-][Cl+3]([O-])([O-])[O-]`: inactive: -15.4%.
The figure for `Cc1ccccc1NP(C)(=O)Nc1ccccc1C` is inactive: 4.57% [at 0.074 µM].
In the case of `NNC(NN)NN.n1nc(-c2nn[nH]n2)n[nH]1`, the cytoprotection (ATP increase) was inactive: -9.12% [at 10 µM].
As to `CCN(CC)CC(O)COC(=O)C(O)(c1ccccc1)C1CCCCC1` (centres undefined), the cytoprotection (ATP increase) is inactive: -5.54%.
The figure for `OCCSCCO` is inactive: -4%; for `O=C(OCCCN1CCCC1)C(O)(c1ccccc1)C1CCCCC1` (centres undefined) it is inactive: -98.7% [at 10 µM]; for `COc1ccccc1OP(C)(=O)Nc1c(C)n(C)n(-c2ccccc2)c1=O` (centres undefined) it is inactive: 1.45%.
In the case of `CCc1ccc(OP(C)(=O)Nc2cccnc2)cc1` (centres undefined), the cytoprotection (ATP increase) was inactive: -21.3%.
In the case of `CP(=O)(Oc1ccccc1)N1CCOC1=O` (centres undefined), the cytoprotection (ATP increase) is inactive: 4%.
The figure for `CC(C)(C)c1ccc(OP(C)(=O)O)cc1` is inactive: -16.6%; for `COc1ccccc1OP(C)(=O)Nc1ccccc1Br` (centres undefined) it is inactive: -20.1%.
Take `CP(=O)(Nc1ccc(Cl)cc1)Oc1ccc(F)cc1` (centres undefined): the cytoprotection (ATP increase) is inactive: 12.1%.
On to `CN(C)C(=O)c1c([N+](=O)[O-])cc([N+](=O)[O-])cc1[N+](=O)[O-]`, for which the cytoprotection (ATP increase) was inactive: -176%.
Take `CCOC(=O)c1ccc(NP(C)(=O)Oc2ccc(Cl)cc2)cc1` (centres undefined): the cytoprotection (ATP increase) was inactive: -12.1% [at 10 µM].
With `CP(=O)(OC12CC3CC(CC(C3)C1)C2)OC12CC3CC(CC(C3)C1)C2`, the cytoprotection (ATP increase) was inactive: -6.52%.
Take `CC(C)OP(=O)(F)OC(C)C`: the cytoprotection (ATP increase) was inactive: 25.3%.
With `C/C1=C2N=C(/C=C3N=C(/C(C)=C4\[N-][C@@](C)([C@H]5N=C1[C@@](C)(CCC(=O)NC[C@H](C)OP(=O)([O-])O[C@@H]1[C@H](O)[C@H](n6cnc7cc(C)c(C)cc76)O[C@@H]1CO)[C@@H]5CC(N)=O)[C@](C)(CC(N)=O)[C@H]4CCC(N)=O)[C@@](C)(CC(N)=O)[C@@H]\3CCC(N)=O)C(C)(C)[C@@H]/2CCC(N)=O.[C-]#N.[Co+3]`, the cytoprotection (ATP increase) was inactive: -38.9% [at 17.1 µM].
Turning to `Cc1cc(C)cc(OP(C)(=O)Nc2cccc(C(F)(F)F)c2)c1` (centres undefined), the cytoprotection (ATP increase) is inactive: 12.7% [at 10 µM].
For the compound `COc1ccccc1OP(C)(=O)Nc1ccc(C)c(C)c1` (centres undefined), the cytoprotection (ATP increase) was inactive: -12.8% [at 10 µM].
For the compound `COc1ccc(OP(C)(=O)Nc2ccccc2Br)cc1` (centres undefined), the cytoprotection (ATP increase) is inactive: 13.9% [at 10 µM].
Next, `Cc1nc2ccc3ccccc3c2o1.O=[N+]([O-])c1cc([N+](=O)[O-])c(O)c([N+](=O)[O-])c1`: inactive: -47.5%; `CP(=O)(OCCOc1ccccc1)OCCOc1ccccc1`: inactive: -27.4%; `CP(=O)(Nc1ccc(Cl)cc1Cl)Oc1ccccc1` (centres undefined): inactive: 8.15% [at 10 µM].
For the compound `COc1ccccc1OP(C)(=O)Nc1ccc(Br)cc1` (centres undefined), the cytoprotection (ATP increase) was inactive: -27.7% [at 10 µM].

The values above are taken from PubChem BioAssay AID1471 (National Center for Advancing Translational Sciences (NCATS), 2008).
